Earlier results on 1 substance are cited in patent US9682037B2, “Non-mucoadhesive film dosage forms” (APR APPLIED PHARMA RESEARCH S.A., priority 2006, dated 2017).

With Buprenorphine HCl, for the setting “16 mg”, the AUC0-48 entry was “AUC0-48 (hr · ng/ml) = 32.63 (CV = 25) (16.0 mg)” and the Cmax entry is reported as “Cmax = 5.47 ng/ml (CV = 23) (16 mg)”. Besides, the “buprenorphine level (below limit of quantitation)” value (1.0, 2.0 and 4.0 mg doses, after two hours, seven of eight subjects) is listed as “below limit of quantitation (0.05 ng/ml) after”. The “Linearity / dose proportionality of pharmacokinetics” value (result in words) is listed as “Dose proportional pharmacokinetics for”.
